US6541450B1, “Parathyroid hormone analogues for the treatment of osteoporosis” (National Research Council of Canada, priority 1994, dated 2003)
Entries after “also recorded” stand apart in the source; their conditions may differ.

Assays:
[1] = system: ovariectomized (OVX) Sprague-Dawley rats; assay: Anabolic activity in ovariectomized rat model, injections from 2nd to 8th week after OVX; assay type: in vivo; settings: subcutaneously injected
Source text: A full description of the protocol is given in Rixon et al, J. Bone & Mineral Research 9, 1179-1189, 1994 and Whitfield et al Calcif. Tissue Int. 58, 81-87, 1996 incorporated herein by reference. Normal, Sham-OVX (ovariectomized), and OVX Sprague-Dawley rats (3 months-old; 255-260 g) were purchased from
Charles River Laboratories (St. Constant, QC). The rats were randomized into groups of 8 animals which received Purina rat chow and water ad libitum. There were no unscheduled deaths. The animals received 6, once-daily subcutaneous injections/week starting at the end of the second week after OVX, and ending at the end of the 8th week after OVX (i.e., 36 injections). Eight Sham-OVX and 8 OVX controls rats received 36 injections of vehicle (0.15 M NaCl containing 0.001N HCl) while 8 OVX rats received 0.6 nmole of fragment in vehicle/100 g of body weight). At the end of the 8th week after OVX, femurs were removed isolated, cleaned, and cut in half at mid-diaphysis and the proximal half was discarded. […]
The bone-building potencies of the fragments were assessed from the changes in the mean thicknesses (area/perimeter) of the trabeculae in the distal half-femurs from the variously treated animals. […] The mean trabecular thickness was measured using a M4 imaging system and bone morphometric software from Imaging Research Inc., (St. Catherines, ON, Canada). […]

[2] = system: anesthetized female Sprague-Dawley rats; assay: Hypotensive effect, tail artery pressure in anaesthetized rats; settings: for time to reduction of tail artery pressure: injection into a femoral vein; for dose of maximal hypotensive effect: rat, in vivo
[3] = target: T1, adenylyl cyclase, ROS 17/2 cells (Rattus norvegicus, UniProt P25961); assay: Adenylyl cyclase stimulation, [3H]-cyclic AMP production in ROS 17/2 cells; assay type: cell-based
T1 sequence (P25961 27-591): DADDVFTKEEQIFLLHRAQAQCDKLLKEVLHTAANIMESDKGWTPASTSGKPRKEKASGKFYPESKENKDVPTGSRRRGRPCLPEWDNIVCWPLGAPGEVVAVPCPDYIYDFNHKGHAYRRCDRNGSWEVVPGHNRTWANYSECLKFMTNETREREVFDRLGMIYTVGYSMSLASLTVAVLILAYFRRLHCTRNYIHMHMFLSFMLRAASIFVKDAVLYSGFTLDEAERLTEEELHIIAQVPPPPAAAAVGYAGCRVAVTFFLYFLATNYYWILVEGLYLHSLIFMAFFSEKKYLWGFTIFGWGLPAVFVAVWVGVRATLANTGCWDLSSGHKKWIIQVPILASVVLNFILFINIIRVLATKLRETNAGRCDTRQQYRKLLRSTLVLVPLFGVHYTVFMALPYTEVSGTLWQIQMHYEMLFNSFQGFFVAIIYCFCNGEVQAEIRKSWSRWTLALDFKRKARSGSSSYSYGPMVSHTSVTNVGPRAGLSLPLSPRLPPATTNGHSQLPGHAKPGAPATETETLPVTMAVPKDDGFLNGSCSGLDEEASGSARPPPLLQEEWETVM

[4] = system: ovariectomized (OVX) Sprague-Dawley rats; settings: literature; cited from earlier work
[5] = system: ovariectomized (OVX) rats with severely depleted trabecular bone; assay: Bone restoration in OVX rats with severely depleted trabecular bone, treatment from 9 weeks after OVX; assay type: in vivo, rat
Source text: Doses were based upon dose-response data on hPTH(1-31)-NH2. […] By the end of the 9th week they had lost about 75% of their femoral trabecular bone mass. […] The fragment could also stimulate trabecular bone growth in much older rates. […] Accordingly, the dosage of 0.6 nmole/100 g of body weight was used in further tests.
In this second example of bone restoration, the abilities of the lactam fragments to restore severely depleted trabecular bone are compared. In this experiment, the 6-week program of once-daily injections of 0.6 nmole of peptide/100 g of body weight of young sexually mature rats was delayed until the end of the 9th week after OVX. At this time, 75% of their trabecular bone had been lost.

[6] = intravenous, 0.8 nmol/100 g of body weight
[7] = subcutaneous, 0.8 nmol/100 g of body weight

For `CC[C@H](C)[C@H](NC(=O)[C@H](CCC(=O)O)NC(=O)[C@H](CO)NC(=O)[C@@H](NC(=O)[C@@H](N)CO)C(C)C)C(=O)N[C@@H](CCC(N)=O)C(=O)N[C@@H](CC(C)C)C(=O)N[C@@H](CCSC)C(=O)N[C@@H](Cc1c[nH]cn1)C(=O)N[C@@H](CC(N)=O)C(=O)N[C@@H](CC(C)C)C(=O)NCC(=O)N[C@@H](CCCCN)C(=O)N[C@@H](Cc1c[nH]cn1)C(=O)N[C@@H](CC(C)C)C(=O)N[C@@H](CC(N)=O)C(=O)N[C@@H](CO)C(=O)N[C@@H](CCSC)C(=O)N[C@@H](CCC(=O)O)C(=O)N[C@@H](CCCNC(=N)N)C(=O)N[C@H](C(=O)N[C@@H](CCC(=O)O)C(=O)N[C@@H](Cc1c[nH]c2ccccc12)C(=O)N[C@@H](CC(C)C)C(=O)N[C@@H](CCCNC(=N)N)C(=O)N[C@@H](CCCCN)C(=O)N[C@@H](CCCCN)C(=O)N[C@@H](CC(C)C)C(=O)N[C@@H](CCC(N)=O)C(=O)N[C@@H](CC(=O)O)C(=O)N[C@H](C(=O)N[C@@H](Cc1c[nH]cn1)C(=O)N[C@@H](CC(N)=O)C(=O)N[C@@H](Cc1ccccc1)C(=O)O)C(C)C)C(C)C` [hPTH-(1-34), reference compound], the “osteogenic activity, in words” value [1] was “significantly more osteogenic than the other two molecules; also recorded: strongest hypotensive and osteogenic actions”, the “time to reduction of tail artery pressure” value [2] was “about 1 minute” and the “hypotensive action, in words” value ([2]; intravenous injection) was “no significant difference”. For the same compound, the “reduction of tail artery pressure” value [2, 6] was 50.9±5.6 mm Hg, the “dose of maximal hypotensive effect” value [2] was 0.8 nmol/100 g of body weight and the “hypotensive action, in words” value ([2]; subcutaneous injection) was “much more hypotensive; also recorded: at least twice as effective (P<0.01) as the other two molecules”. The “reduction of tail artery pressure” value [2, 7] was 27.9±3.6 mm Hg.

For `CC[C@H](C)[C@H](NC(=O)[C@H](CCC(=O)O)NC(=O)[C@H](CO)NC(=O)[C@@H](NC(=O)[C@@H](N)CO)C(C)C)C(=O)N[C@@H](CCC(N)=O)C(=O)N[C@@H](CC(C)C)C(=O)N[C@@H](CCSC)C(=O)N[C@@H](Cc1c[nH]cn1)C(=O)N[C@@H](CC(N)=O)C(=O)N[C@@H](CC(C)C)C(=O)NCC(=O)N[C@@H](CCCCN)C(=O)N[C@@H](Cc1c[nH]cn1)C(=O)N[C@@H](CC(C)C)C(=O)N[C@@H](CC(N)=O)C(=O)N[C@@H](CO)C(=O)N[C@@H](CCSC)C(=O)N[C@@H](CCC(=O)O)C(=O)N[C@@H](CCCNC(=N)N)C(=O)N[C@H](C(=O)N[C@@H](CCC(=O)O)C(=O)N[C@@H](Cc1c[nH]c2ccccc12)C(=O)N[C@@H](CC(C)C)C(=O)N[C@@H](CCCNC(=N)N)C(=O)N[C@@H](CCCCN)C(=O)N[C@@H](CCCCN)C(=O)N[C@@H](CC(C)C)C(=O)N[C@@H](CCC(N)=O)C(=O)N[C@@H](CC(=O)O)C(=O)N[C@H](C(N)=O)C(C)C)C(C)C` [compound 1, hPTH-(1-31)-NH2], the “osteogenic activity, in words” value [1] was “equally osteogenic”, the “AC-stimulating activity, comparison in words” value [3] was “stimulate AC as strongly as hPTH-(1-34)” and the “time to reduction of tail artery pressure” value [2] was “about 1 minute”. The “hypotensive action, in words” value ([2]; intravenous injection) was “potently hypotensive; also recorded: no significant difference; also recorded: dropped the pressure as much as hPTH-(1-34)”, the “reduction of tail artery pressure” value [2, 6] was 51.6±3.3 mm Hg and the “time to maximum drop in tail artery pressure” value [2, 6] was “equally prompt”. The “dose of maximal hypotensive effect” value [2] was 0.8 nmol/100 g of body weight, the “reduction of tail artery pressure” value [2, 7] was 11.1±1.6 mm Hg and the “restoration of bone loss in the ovariectomized rat model” value [4] was “fully active”. The mean trabecular thickness ([5]; 1-year-old rats, predepleted 9 weeks after OVX, 36 injections of 0.6 nmole/100 g) was “significantly increase the mean trabecular thickness above the normal starting value” and the mean trabecular thickness ([5]; 3-months-old OVX rats, 9 weeks depletion, 36 injections of 0.8, 0.6, 0.4, 0.2 nmole/100 g) was “dose-dependent increase in the mean trabecular thicknesses”.
